# Reference: article PMC6503841 (Nature chemical biology, 2018)
# Target: T1, AF9 YEATS (Homo sapiens, UniProt P42568)
# T1 sequence (P42568 1-138): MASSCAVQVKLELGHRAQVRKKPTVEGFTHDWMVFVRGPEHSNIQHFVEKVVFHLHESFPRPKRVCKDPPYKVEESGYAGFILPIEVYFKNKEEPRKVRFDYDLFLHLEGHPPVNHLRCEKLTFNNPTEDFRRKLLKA
# Experiment: competitive photo-cross-linking assay
# Format: binding
# Details: result in words
substance,measurement,value
"XL-07a: dipeptide with the RK signature motif, 2-furancarbonyl lysine series",inhibitory effect,significantly reduced inhibitory activity
